Binding of CDR-mutated scFvs to a peptide of the spike HR2 region

Antigen: PDVDLGDISGINAS, a 14-residue peptide of the SARS-CoV-2 spike HR2 region.

Each scFv is VH, a 15-residue (Gly4Ser)3 linker, VL, as in the parent Ab-14, and differs from it in the CDRs of the light chain only.
VH: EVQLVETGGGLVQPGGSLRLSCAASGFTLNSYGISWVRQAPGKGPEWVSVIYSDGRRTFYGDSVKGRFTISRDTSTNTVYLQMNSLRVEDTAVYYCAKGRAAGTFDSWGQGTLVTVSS
VL: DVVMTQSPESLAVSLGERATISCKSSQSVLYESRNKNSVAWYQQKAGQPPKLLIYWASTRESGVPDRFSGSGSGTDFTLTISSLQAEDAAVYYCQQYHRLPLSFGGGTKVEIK

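The starting antibody came from a phage panning campaign against this peptide. Designed CDR sequences, proposed from the first random library and measured here. Group labels follow the data file (En: ensemble of fine-tuned language models; GP: Gaussian process model; HC: hill climbing; Gen: genetic algorithm; Gibbs: Gibbs sampling; a sequence that several methods proposed may carry one label only). The scFvs were displayed on barcoded MATa yeast, the peptide on MATalpha yeast. Mating (16 h, 30 °C) was followed by selection of diploids and sequencing of their barcodes. Scores were corrected for input abundance and mapped to Kd with protein pairs of known affinity run in the same pool. There are six technical replicates.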

The parent's light chain CDRs are KSSQSVLYESRNKNSVA, WASTRES, QQYHRLPLS; each variant's own CDRs replace them letter for letter.
This list holds designs with more than six substitutions.
The Kd shown is the geometric mean over detected replicates; a lower Kd is a better binder.
An entry "nd" has no value in the source: the pair was not observed among the diploids in any replicate. This suggests poor binding but is not conclusive.

| CDR-L1 | CDR-L2 | CDR-L3 | group | Kd (apparent) | detected | control signals |
|---|---|---|---|---|---|---|
| KLTEQLYNGEREPSSIA | AGVIGSD | QQYHQLPLI | En_Gibbs | 42 nM | 6 of 6 | 0 of 18 |
| KLSQSVLFWGHAINSVA | EMETREN | QQYDRLPLS | En_HC | 2.3 nM | 6 of 6 | 0 of 18 |
| MVNGITDHLSKNKNSVA | ETVTREE | QQYDRLPLS | En_Gen | 5.4 nM | 6 of 6 | 0 of 18 |
| KLYERGEESSKVDRSIA | EMSTRQE | QSYQRLPLS | En_Gibbs | 7.1 nM | 6 of 6 | 2 of 18 |
| TISQMTSLFSQTINNVA | EVSTREP | QQYDRLPLM | En_Gen | 7.7 nM | 6 of 6 | 2 of 18 |
| KYSQQNLYEQRNFNSVA | NASYRES | QQYHRLPLS | GP_Gibbs | 1.6 nM | 6 of 6 | 2 of 18 |
| MVSQLMVWGLHAKNSIA | EAAMRLN | QQYDRLPLF | En_Gen | 93 nM | 3 of 6 | 0 of 18 |
| FLAYALDQDGLQKNNIA | QVNLLEN | QQYERLPLA | En_Gibbs | 40 nM | 6 of 6 | 2 of 18 |
| NLMSHQSELSVWKYSIA | EASIRLS | QQYFRLPLA | En_Gibbs | 4.9 nM | 6 of 6 | 0 of 18 |
| GIFSQMDGPTEYKENVA | NGNERLP | QQYQRLPLT | En_Gibbs | 850 pM | 6 of 6 | 2 of 18 |
| KLSQSMSYEWRNKMSVA | NASQRLS | QQYHRLPLS | GP_Gibbs | 1.7 nM | 6 of 6 | 2 of 18 |
| KLQSVTGTEKVHGNNVA | EMATRER | QQYNRLPLA | En_Gen | 1.0 nM | 6 of 6 | 0 of 18 |
| IIEQGEYEQEQHKNAIA | DGEERMR | QQYYKLPLV | En_Gibbs | 1.9 nM | 6 of 6 | 0 of 18 |
| KLSATYRYEMQNKNSIA | EMTTRES | QCYHRLPLS | En_HC | 390 nM | 4 of 6 | 0 of 18 |
| HVSMLTLGGLKERNSVA | QMTTREN | QQYDRLPLS | En_Gen | 5.4 nM | 6 of 6 | 0 of 18 |
| KIQDNLGTLMEQINSVA | NSEEIVD | QSYFRLPLS | En_Gibbs | 11 nM | 6 of 6 | 0 of 18 |
| KLSQSQLYEWRNMNSVA | NASTREM | QQYHRLPLI | GP_Gibbs | 3.4 nM | 6 of 6 | 1 of 18 |
| LISGVWDYGSRNYNSVA | QTSTREN | QQYDRLPLE | En_HC | 45 nM | 6 of 6 | 2 of 18 |
| IAVQSWLYESRNKNSVA | GASTRMS | QQYHRLPLI | GP_HC | 34 nM | 6 of 6 | 2 of 18 |
| ALTNEPESVDHHMNNIA | STSKRCM | QQYARLPLS | En_Gibbs | 6.0 nM | 6 of 6 | 1 of 18 |
| ALNQKGFQLHGDRQSIA | HSDTRLA | QQYYRLPLA | En_Gibbs | 25 nM | 5 of 6 | 0 of 18 |
| KVEEEGDVFARIDNSVA | EMSMVLD | QQYHRLPLA | En_Gibbs | 18 nM | 6 of 6 | 1 of 18 |
| KSSGQVCYGDRNKNSVA | NASLREQ | QQYHRLPLS | GP_Gibbs | 5.6 nM | 6 of 6 | 2 of 18 |
| NISQMFMMETKNVNNVA | QTSTRES | QDYHRLPLS | En_HC | 560 pM | 6 of 6 | 0 of 18 |
| KMDQWVDYGDRWKNSVA | NASTREQ | QQYHRLPLS | GP_Gibbs | 1.4 nM | 6 of 6 | 0 of 18 |
| KLSLSMSYSHEGRRHIA | NGSNRCI | QQYHRLPLI | En_Gibbs | 15 nM | 6 of 6 | 1 of 18 |
| KIRWQQYDQSEMEANIA | QESTRHQ | QQYFRLPLS | En_Gibbs | 11 nM | 6 of 6 | 1 of 18 |
| KFSQMSNSMSVSKSAVA | EMSTRPE | QQYNRLPLM | En_Gen | 2.1 nM | 6 of 6 | 0 of 18 |
| HLGIQTQGEEVSTQAVA | QESTRAK | QQYFRLPLI | En_Gibbs | 3.5 nM | 6 of 6 | 0 of 18 |
| KLSQSDGYQSRNKNSVA | HASQRED | QQYHRLPLS | GP_Gibbs | 6.1 nM | 6 of 6 | 2 of 18 |
| KISMLHNQTFEQSNNVA | EMATREK | QQYNRLPLS | En_Gen | 7.7 nM | 6 of 6 | 1 of 18 |
| KLMGSMQYESRNKNAVA | EASTRES | QQYHRLPLS | GP_Gibbs | 580 pM | 6 of 6 | 0 of 18 |
| KIYQFGLNHSHQTNSIA | DQECREA | QQYDRLPLS | En_Gen | 290 nM | 3 of 6 | 1 of 18 |
| KLSMVTNQEHKVKNSIA | EMVTREK | QQYDRLPLE | En_HC | 33 nM | 6 of 6 | 3 of 18 |
| SLMDNPWVEDHYRKAIA | DINVKAD | QQYHRLPLS | En_Gibbs | 3.2 nM | 6 of 6 | 0 of 18 |
| KFKAMLNMWARDISNVA | HADERNV | QQYSRLPLG | En_Gibbs | 27 nM | 6 of 6 | 0 of 18 |
| MISQLYNMGQFAINSVA | QASLRYN | QQYDRLPLM | En_Gen | nd | 0 of 6 | 0 of 18 |
| KLSISYLFEQLEKNSIA | ENSTREK | QHYHRLPLS | En_HC | 220 nM | 1 of 6 | 0 of 18 |
| KIGMQVTYQSMVNNAIA | QMETREE | QQYHRLPLS | En_HC | 690 nM | 4 of 6 | 0 of 18 |
| KIQGMYQKESKNKNSVA | EMVNRES | QQYDRLPLS | En_HC | 35 nM | 6 of 6 | 1 of 18 |
| TLYMGPTEARDDKHAIA | NMNERDY | QQYHRLPLV | En_Gibbs | 7.9 nM | 6 of 6 | 0 of 18 |
| RLTNEFFKEKEHKNSVA | HADQRCM | QQYFRLPLI | En_Gibbs | 7.8 nM | 6 of 6 | 7 of 18 |
| QTTAFYQHGHDQNQAMA | DVTMRDQ | QQYERLPLS | En_Gibbs | 3.5 nM | 6 of 6 | 1 of 18 |
| MLGESYGMMVQKKSSIA | DNSTREA | QQYDRLPLS | En_Gen | 1.6 nM | 1 of 6 | 0 of 18 |
| KLIQSVAMMSRNKNSIA | DNSTRES | QQYHRLPLS | En_HC | 5.4 nM | 6 of 6 | 2 of 18 |
| KLSQVTHSEHKQKNSIA | EMVTREK | QQYDRLPLS | En_HC | 27 nM | 6 of 6 | 1 of 18 |
| KVDMYELPMEFNRSAVA | QAEVRAP | QQYWRLPLE | En_Gibbs | 71 nM | 6 of 6 | 0 of 18 |
| HVHSLMAIWQEISNNIA | DAQNRNA | QQYFRLPLA | En_Gibbs | 21 nM | 3 of 6 | 0 of 18 |
| TISQLMNMGQFAINSVA | QASERSN | QQYDRLPLI | En_Gen | 5.2 nM | 6 of 6 | 0 of 18 |
| IITQVDAYLSRNTNSIA | DQSTRGS | QQYDRLPLS | En_HC | 18 nM | 6 of 6 | 1 of 18 |
| TISGVMQQMTHSKNNVA | EVSTRLD | QQYFRLPLE | En_Gen | 3.2 nM | 6 of 6 | 0 of 18 |

Extract of 7 entries:

CDR-L1,CDR-L2,CDR-L3,group,Kd (apparent),detected,control signals
KLSQSDGYQSRNKNSVA,HASQRED,QQYHRLPLS,GP_Gibbs,6.1 nM,6 of 6,2 of 18
KLSLSMSYSHEGRRHIA,NGSNRCI,QQYHRLPLI,En_Gibbs,15 nM,6 of 6,1 of 18
ALTNEPESVDHHMNNIA,STSKRCM,QQYARLPLS,En_Gibbs,6.0 nM,6 of 6,1 of 18
KFKAMLNMWARDISNVA,HADERNV,QQYSRLPLG,En_Gibbs,27 nM,6 of 6,0 of 18
KVEEEGDVFARIDNSVA,EMSMVLD,QQYHRLPLA,En_Gibbs,18 nM,6 of 6,1 of 18
SLMDNPWVEDHYRKAIA,DINVKAD,QQYHRLPLS,En_Gibbs,3.2 nM,6 of 6,0 of 18
FLAYALDQDGLQKNNIA,QVNLLEN,QQYERLPLA,En_Gibbs,40 nM,6 of 6,2 of 18

The authors averaged sequences with at least three values out of six and counted those with two or fewer as poor binders.
Of ten entries with the parent sequence, four were seen in most replicates (averages 2.2 nM to 240 nM), three in one and three in none, so single entries are noisy.
Three control strains display no target. For all light chain designs, 4% of the pairings with them gave a signal, with a median of 430 nM and one signal in twenty below 38 nM, so weak values seen in few replicates may be background. For each scFv, signals with the empty controls are counted beside the result.
A sequence measured in both rounds can read differently, since the two assays cover different ranges.

Source: Li et al. 2023 (doi:10.1038/s41467-023-39022-2), MIT Lincoln Laboratory and A-Alpha Bio; data file from the FLAb repository.